Ab-14 heavy chain CDR variants: yeast mating affinities

Reference: Li et al. 2023, doi:10.1038/s41467-023-39022-2. File: FLAb, binding data.

Target peptide (SARS-CoV-2 spike, HR2 region): PDVDLGDISGINAS

Parent scFv Ab-14: VH joined to VL by a 15-residue (Gly4Ser)3 linker. Changes lie in the heavy chain CDRs alone.
VH: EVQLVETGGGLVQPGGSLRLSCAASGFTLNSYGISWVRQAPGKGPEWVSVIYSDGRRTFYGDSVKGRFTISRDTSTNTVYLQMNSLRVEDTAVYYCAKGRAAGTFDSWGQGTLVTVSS
VL: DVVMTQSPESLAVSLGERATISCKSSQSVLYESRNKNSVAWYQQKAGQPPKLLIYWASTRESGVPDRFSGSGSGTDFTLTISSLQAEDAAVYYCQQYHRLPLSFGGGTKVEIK

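Designed CDR sequences, proposed from the first random library and measured here. Group labels follow the data file (Ctrl: baseline library sampled from a position-specific scoring matrix, with some repeated check sequences; Rand: our label for a block that the file lists under HC and that is probably the random mutants of the ten best first-round binders; En: ensemble of fine-tuned language models; GP: Gaussian process model; GPLM: also part of the Gaussian process libraries; HC: hill climbing; Gen: genetic algorithm; Gibbs: Gibbs sampling; a sequence that several methods proposed may carry one label only). In AlphaSeq, yeast of one mating type display the scFv and yeast of the other type display the target. Mating (16 h, 30 °C) was followed by selection of diploids and sequencing of their barcodes. Read counts were normalised to the haploid input and turned into Kd by a linear fit to BCL2-family pairs of known affinity, for each replicate. Mating was done six times.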

Each variant is given by its three heavy chain CDRs, as the data file delimits them; those of the parent are GFTLNSYGIS, VIYSDGRRTFYGDSVK, GRAAGTFDS.
Affinities are written as log10 Kd with Kd in nM; a lower number is a better binder.
A mean of the replicates is given; it leaves out those without a signal.
"ND" marks a missing value. The strain was present, yet no cells mated with the target were sequenced in that replicate, which points to weak or no binding.
Entries are sorted by rising average, undetected variants last.

CDR-H1	CDR-H2	CDR-H3	group	log10 Kd, replicates	log10 Kd (nM), mean
GFDLNEYGIS	VIYADGSRTAYIDSVK	GNVAGTFDT	En_Gen	-0.93 ND ND -1.37 -1.34 ND	-1.22
GFGLDEYGIS	VIYADGRRTFYTDSVK	GGNAGTFDV	En_HC	-0.83 -1.02 -1.35 -1.30 -0.81 -0.62	-0.99
GFDLNEYGIS	VIYADGVRTSYADSVK	GNVAGTFDM	En_Gen	-0.37 -0.33 -0.77 -1.04 -0.63 -0.59	-0.62
GFDLNEYGIS	VIYADGRRTFYADSVK	GKIAGTFDS	En_HC	-0.41 -0.57 -0.70 -0.83 -0.73 -0.50	-0.62
GFDLNEYGIS	VIYADGMRTAYADSVK	GGVAGTFDQ	En_Gen	-0.36 -0.25 -0.27 -0.84 -0.75 -0.52	-0.50
GFSLNEYGIS	VIYSDGRRTFYGDSVK	GRTAGTFDQ	GPLM_Gibbs	-0.55 -0.19 -0.32 -0.60 -0.30 -0.27	-0.37
GFDLNEYGIS	VIYADGMRTAYADDVK	GNHAGTFDI	En_Gen	-0.43 -0.34 0.13 -0.73 -0.48 -0.37	-0.37
GFDLNTYGIS	VIYSDGRRTFYSDSVK	GQAAGTFDS	GP_Gibbs	-0.11 -0.29 -0.13 -0.20 -0.24 -0.13	-0.18
GFDLNEYGIS	VIYADGRRTAYADSVK	GDNAGTFDV	En_Gen	0.04 0.24 0.05 -0.82 -0.18 -0.07	-0.12
GFSLNNYGIS	VIYSDGRRTFYTDSVK	GQTAGTFDS	GPLM_Gibbs	0.15 0.08 -0.06 -0.45 -0.32 -0.02	-0.10
GFSLNDYGIS	VIYSDGRRTFYTDSVK	GRTAGTFDS	GPLM_Gen	0.16 -0.39 0.22 -0.29 -0.22 0.00	-0.09
GFTLNDYGIS	VIYSDGRRTFYSDSVK	GRVAGTFDS	GPLM_Gen	0.35 -0.27 -0.50 -0.14 0.01 0.25	-0.05
GTTLNSYGIS	VIYADGRRTFYSDSVK	GQAAGTFDS	Ctrl	0.05 -0.02 0.16 -0.21 -0.15 0.06	-0.02
GFELNTYGIS	VIYSDGRRTFYGDQVK	GKTAGTFDS	GP_Gibbs	ND -0.45 0.44 ND ND ND	-0.01
GFDLNSYGIS	VIYSDGRRTFYSDSVK	GQTAGTFDS	GP_Gen	0.25 -0.11 -0.17 -0.18 -0.10 0.29	0.00
GFDLNEYGIS	VIYADGSRTFYADSVK	GENAGTFDQ	En_HC	0.24 -0.23 -0.08 0.00 -0.02 0.38	0.05
GFDINEYGIS	VIYADGRRTFYADSVK	GQTAGTFDS	En_HC	1.64 0.17 -0.53 -0.59 -0.79 0.62	0.09
GFDLNSYGIS	VIYSDGRRTFYGDSVK	GKTAGTFDD	GP_Gen	0.28 0.40 0.10 0.15 0.11 0.18	0.20
GFSLNTYGIS	VIYSDGRRTAYGDSVK	GRAAGTFDS	GP_Gibbs	0.67 1.25 0.35 0.46 0.08 0.56	0.56
GFELNSYGIS	VIYSDGRRTFYQDSVK	GQTAGTFDK	GP_Gibbs	0.73 0.38 0.55 0.31 0.47 0.95	0.56
GFTLNEYGIS	VIYSDGRRTFYKDSVK	GRWAGTFDS	GPLM_HC	ND 0.09 0.40 0.49 1.37 0.50	0.57
GFLLNSYGIS	VIYSDGRRTFYDDSVK	GQTAGTFDS	GP_HC	1.05 0.54 1.03 ND -0.19 0.53	0.59
GFSLNSYGIS	VIYSDGRRTFYIDSVK	GNAAGTFDL	GP_Gibbs	ND 0.35 ND 0.83 0.41 0.85	0.61
GFTLESYGIS	VIYSDGRRTFYDDDVK	GRAAGTFDS	GP_Gibbs	1.51 0.47 0.54 0.44 0.54 0.34	0.64
GFDLEEMGVS	VIYADGIRFAYAQKVK	GQAAGTFDL	En_Gibbs	0.74 0.62 0.78 0.64 0.82 0.95	0.76
GFSLKSYGIS	VIYADGRRTFYGDSVK	GQAAGTFDS	GPLM_Gen	0.62 0.43 0.61 0.93 0.88 1.14	0.77
GFILDEYGIS	VIYADGERTMYSNRVK	GNEAGTFDF	En_Gibbs	0.93 1.84 ND 1.04 0.24 0.45	0.90
KFTLNEYGIS	VIYSDGRRTFYTDSVK	GRTAGTFDS	GP_HC	0.69 0.98 1.15 1.52 1.04 0.94	1.05
GFDLNEYGIS	VIYADGMRTAYADSVK	GEEAGTFDV	En_Gen	0.96 0.86 0.76 1.42 1.36 1.17	1.09
GMDLDEYGIS	VIYADGSRVFYVQDVK	GTLDVVGDV	En_Gibbs	ND ND ND ND 1.45 ND	1.45
GFTLNDYGIS	VIYSDGRRVFYGDDVK	GRAPGTFDY	Ctrl	ND ND ND ND 2.31 ND	2.31
GFTLNSYGIS	VIYSDGRRTFYGDSVK	GRNAGTFDT	GPLM_Gen	2.44 4.03 ND 3.08 ND 2.87	3.11
GFNLNEYGIS	VIYADGRRTFYADSVK	GEHAGFFDI	En_HC	ND ND ND ND ND 3.41	3.41
GFELNEYGIS	VIYADGMRASYRNDVK	GEISGDFML	En_Gibbs	ND ND ND ND ND ND	ND
GFELNSYGIS	VIYSDGRRTFYGDSVK	GRTAGTFDC	GP_Gibbs	ND ND ND ND ND ND	ND
GFTLNSYGIS	VIYADGRRTFYGDSVK	GIAAGTFDS	Ctrl	ND ND ND ND ND ND	ND
GFLIDEYGIS	VIYADGQRTAYTDDVK	GYVGGIGGI	En_Gibbs	ND ND ND ND ND ND	ND
GFQIDEYGIS	VIYADGLRTAYSQAVK	GMDTGLFMD	En_Gibbs	ND ND ND ND ND ND	ND
GFTLNQYGIS	VIYSDGRRTFKSDSVK	GRAMGFFDS	Rand	ND ND ND ND ND ND	ND
GFNLNSYGIS	VIYSDGRRTFYADRVK	GEAAGTFDS	GP_Gen	ND ND ND ND ND ND	ND
GFDLNEYGIS	VIYADGKRTAYADSVK	GENAGTFVV	En_Gen	ND ND ND ND ND ND	ND
GKDLEEYGIS	VIYADGRRTAYIENVK	DGLNDGLDV	En_Gibbs	ND ND ND ND ND ND	ND
GFDLGEYGIS	VIYADGRRTAYQDSVK	GLNEGMLVV	En_Gibbs	ND ND ND ND ND ND	ND
GFDLDEYGVS	VIYADGHRAQYTEDVK	GTNSGAVDM	En_Gibbs	ND ND ND ND ND ND	ND
LFTLNQYGIS	VIYSDGRRTFYSDSVK	GRAAGFFDS	Rand	ND ND ND ND ND ND	ND
GFTLNDPGIS	VPYSDGRRTQYIDSVK	GRAAGLFDS	Rand	ND ND ND ND ND ND	ND
GMDLNEYGIS	VIYADGLRTAYINAVK	GKGSVIVGH	En_Gibbs	ND ND ND ND ND ND	ND

The parent sequence was in this pool as ten entries: three were never detected, three once, and four in most replicates, with averages from 0.34 to 2.37.
The authors averaged sequences with at least three values out of six and counted those with two or fewer as poor binders.
A sequence measured in both rounds can read differently, since the two assays cover different ranges.
Nonspecific signal, from three strains lacking the peptide, appeared in 1% of pairings of all heavy chain designs, centred on 2.08 (5% of these signals below 0.84); values are not corrected for it.